This note sets out measurements from ChEMBL document CHEMBL3352741, “Discovery of VU0431316: a negative allosteric modulator of mGlu5 with activity in a mouse model of anxiety” (Bioorg Med Chem Lett, 2014).

By UniProt entry, the sequences of proteins in these tests, tags left out.
UniProt P31424, whole entry: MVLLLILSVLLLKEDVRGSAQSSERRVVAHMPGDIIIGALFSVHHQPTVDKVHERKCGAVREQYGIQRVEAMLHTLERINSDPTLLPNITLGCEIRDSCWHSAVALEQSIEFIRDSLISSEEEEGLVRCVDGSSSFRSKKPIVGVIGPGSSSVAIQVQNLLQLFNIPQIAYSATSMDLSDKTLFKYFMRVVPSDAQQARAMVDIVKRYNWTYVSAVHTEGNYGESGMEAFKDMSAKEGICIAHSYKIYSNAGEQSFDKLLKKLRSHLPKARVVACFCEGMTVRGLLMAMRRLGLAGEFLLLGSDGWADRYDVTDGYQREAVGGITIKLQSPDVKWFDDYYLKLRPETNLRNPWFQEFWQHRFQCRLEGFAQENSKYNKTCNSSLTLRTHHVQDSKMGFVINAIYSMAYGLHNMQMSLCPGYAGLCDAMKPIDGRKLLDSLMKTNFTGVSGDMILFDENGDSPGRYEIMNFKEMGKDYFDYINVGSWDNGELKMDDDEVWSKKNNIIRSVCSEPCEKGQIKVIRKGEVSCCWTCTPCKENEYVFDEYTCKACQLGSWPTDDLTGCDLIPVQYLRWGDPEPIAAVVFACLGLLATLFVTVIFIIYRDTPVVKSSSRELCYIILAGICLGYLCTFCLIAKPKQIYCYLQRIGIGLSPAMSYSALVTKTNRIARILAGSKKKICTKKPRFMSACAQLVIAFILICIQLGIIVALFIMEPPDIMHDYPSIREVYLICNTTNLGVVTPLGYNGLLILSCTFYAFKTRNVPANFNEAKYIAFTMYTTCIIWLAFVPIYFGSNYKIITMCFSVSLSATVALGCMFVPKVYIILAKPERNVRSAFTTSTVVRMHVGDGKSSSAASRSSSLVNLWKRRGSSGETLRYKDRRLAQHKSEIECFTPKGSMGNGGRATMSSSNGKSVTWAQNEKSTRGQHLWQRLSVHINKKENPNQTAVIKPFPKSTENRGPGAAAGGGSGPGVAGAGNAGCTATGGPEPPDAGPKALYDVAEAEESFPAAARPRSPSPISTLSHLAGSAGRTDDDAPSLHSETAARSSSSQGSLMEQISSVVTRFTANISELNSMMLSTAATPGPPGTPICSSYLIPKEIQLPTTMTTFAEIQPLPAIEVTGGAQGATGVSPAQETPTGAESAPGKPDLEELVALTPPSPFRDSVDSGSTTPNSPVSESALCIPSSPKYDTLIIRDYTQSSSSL

The target of the test is Metabotropic glutamate receptor 5 (Rattus norvegicus, UniProt P31424). As to the kind of experiment: Negative allosteric modulator activity at rat mGlu5 expressed in HEK293A cells assessed as reduction in glutamate-induced calcium mobilization. Format: functional, cell-based, HEK293-A. For orientation: Calcium assays in cells follow changes in intracellular calcium, usually with a dye or a luminescent sensor.
Turning to `COc1cccc(C(=O)Nc2cncc(Oc3cncc(F)c3)n2)c1`, the 50% inhibitory concentration (IC50) came out at 4.4 µM.

In the case of `Cc1nc(C(=O)Nc2cncc(Oc3cncc(F)c3)n2)cs1`, the IC50 was 4.64 µM.

Regarding `O=C(Nc1cncc(Oc2cncc(F)c2)n1)c1ccccc1`, the IC50 was found to be 8.65 µM.

On to `Cc1cc(C)cc(C(=O)Nc2cncc(Oc3cncc(F)c3)n2)c1`, for which the IC50 was 6.6 µM.

For `O=C(Nc1cncc(Oc2cncc(F)c2)n1)c1ccsc1`, the 50% inhibitory concentration (IC50) is 3.45 µM.

In the case of `COc1cccc(C(=O)Nc2cncc(Oc3cncnc3)n2)c1`, the IC50 came to 4.11 µM.

The IC50 is the midpoint of a concentration-inhibition curve.
